Several values for one entry are separate records, joined by “and”; a condition that tells them apart may be missing. Equal values may be shown once.
Molecular target: T1, recombinant human HDAC8 (Homo sapiens, UniProt Q9BY41)
T1 construct: made in house
T1 sequence (Q9BY41 1-377): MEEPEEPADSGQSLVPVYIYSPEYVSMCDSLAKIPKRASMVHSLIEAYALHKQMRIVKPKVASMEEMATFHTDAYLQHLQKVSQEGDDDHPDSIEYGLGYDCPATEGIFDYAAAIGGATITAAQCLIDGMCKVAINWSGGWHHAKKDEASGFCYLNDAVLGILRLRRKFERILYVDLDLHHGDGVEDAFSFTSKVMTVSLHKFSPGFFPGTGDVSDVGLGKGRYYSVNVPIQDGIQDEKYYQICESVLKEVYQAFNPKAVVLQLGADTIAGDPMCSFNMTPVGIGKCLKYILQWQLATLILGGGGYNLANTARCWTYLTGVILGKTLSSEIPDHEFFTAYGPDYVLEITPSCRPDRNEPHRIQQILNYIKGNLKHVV
Assay: HDAC8 in vitro inhibition assay (Fluor de Lys kit)
Assay type: biochemical
Settings: IC50 (µM) ± SE HDAC8, recombinant human HDAC8, Fluor de Lys-HDAC8 substrate 50 µM, 90 min 37 °C
Text: In order to investigate a potential subtype selectivity among different HDAC classes, we first tested them against the recombinant histone deacetylases HDAC1 (class I) and HDAC6 (class llb). […] To further address this issue, we also tested the respective compounds against the class l histone deacetylase HDAC8 (also see Table 1).
Recombinant human HDAC1 and 6 were purchased from BPS Biosciences (San Diego, CA, USA), and recombinant human HDAC8 was produced as described before. Inhibition tests of human HDAC1 and 6 were conducted using carboxybenzyl acetyllysine aminomethylcoumarin (ZMAL) as a substrate. […] For testing of HDAC8, the commercial Fluor de Lys drug discovery kit (BML-KI178) (Enzo Life Sciences, Lausen, Switzerland) was used according to the manufacturer’s instruction. Briefly, the test compound, Fluor de Lys-HDAC8 substrate (50 μM), and enzyme were incubated for 90 min at 37 °C with subsequent addition of 50 μL of Developer II (BML-KI176) (Enzo Life Sciences, Lausen, Switzerland) and further incubation for 45 min at 30 °C. In both assays, trichostatin A (2 μM) was used to stop the reaction. Fluorescence in both cases was measured in a plate reader (BMG Polarstar, BMG Labtech, Ortenberg, Germany) with excitation at λ = 390 nm and emission at λ = 460 nm.

`O=C(CCCCCCC(=O)Nc1ccccc1)NO` [SAHA (1), N-hydroxy-N′-phenyloctanediamide, reference compound] was tested, and the IC50 was 5.7 µM and 5.74 µM.

Reference: paper PMC6017415, “Carbamates as Potential Prodrugs and a New Warhead for HDAC Inhibition” (Molecules : A Journal of Synthetic Chemistry and Natural …, 2018)
